Source: patent publication US5721214A, “Inhibitors of factor Xa” (COR Therapeutics, Inc., priority 1995, dated 1998)
Read-outs that look alike come from different tables or passages of the source.

Target: T1, thrombin (Homo sapiens, UniProt P00734)
T1 construct: The formation of thrombin is the result of the proteolytic cleavage of its precursor prothrombin
Experiment: Thrombin amidolytic assay (Chromozym TH)
Assay type: biochemical

Row | Compound | IC50 (5 min preincubation, room temperature, pH 7.5, read-out: Inhibitory Activity (IC50) Thrombin) | IC50
1 | N=C(N)NCCC[C@@H](C=O)NC(=O)CNC(=O)[C@@H](CCCNC(=N)N)NC(=O)C(=O)O [HOOCCO--D--Arg--Gly--Arg--H, Oxaloyl-D-Arg-Gly-Arg-H] | 95 µM | –
2 | CC(C)(C)OC(=O)N[C@H](CCCN=C(N)N)C(=O)NCC(=O)N[C@H](C=O)CCCN=C(N)N [Boc--D--Arg--Gly--Arg--H, Boc-D-Arg-Gly-Arg-H] | – | > 100 µM
